Binding of CDR-mutated scFvs to a peptide of the spike HR2 region

Source: Engelhart et al. 2022 (doi:10.1038/s41597-022-01779-4), MIT Lincoln Laboratory and A-Alpha Bio; data file from the FLAb repository.

Target: peptide PDVDLGDISGINAS, taken from heptad repeat 2 (HR2) of SARS-CoV-2 spike.

Ab-91 is the parent antibody, in scFv form: VL, then three GGGGS repeats, then VH. The light chain is unchanged in all variants.
VL: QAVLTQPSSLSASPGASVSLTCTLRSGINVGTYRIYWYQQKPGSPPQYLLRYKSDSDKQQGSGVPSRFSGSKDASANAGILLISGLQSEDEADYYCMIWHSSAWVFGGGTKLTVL
VH: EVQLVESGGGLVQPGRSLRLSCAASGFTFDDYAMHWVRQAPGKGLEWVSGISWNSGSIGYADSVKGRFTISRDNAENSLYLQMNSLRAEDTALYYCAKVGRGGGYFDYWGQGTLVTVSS

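Phage display of a naive human antibody library on the peptide gave the parent. The library (AAYL51) carries one to three amino acid substitutions per variant, with no insertions or deletions. The assay is AlphaSeq: two haploid yeast populations carry antibody and antigen on their surface. Pairs that bind mate more often; barcode pairs of the diploids are counted by sequencing. A regression on co-assayed BCL2-family reference pairs converts the normalised counts of each replicate to an apparent Kd. The assay was run in three technical replicates.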

Changes read parent residue, position, new residue, counted from the first residue of the VH shown. Affinities are written as log10 Kd with Kd in nM; a lower number is a better binder. The mean shown is taken over the replicates in which the pair was detected. An entry "n.d." has no value in the source: the pair was not observed among the diploids in that replicate. This suggests poor binding but is not conclusive. Background: pairings of library AAYL51 with three empty control strains gave a value in 21% of cases (median 4.54, 5th percentile 3.26). Values in that range, when seen in few replicates, are hard to tell from nonspecific mating. For each scFv, signals with the empty controls are counted beside the result, with their mean in brackets.

changes,"log10 Kd, replicates","log10 Kd (nM), mean",signal with controls
V64Q/R101H,4.64 / n.d. / n.d.,4.64,2/9 (4.64)
D62M/S63F/V64I,n.d. / n.d. / n.d.,n.d.,0/9
A33C/M34H/I58R,4.35 / 5.52 / 5.51,5.12,6/9 (4.71)
F29C/G56E/I58E,2.58 / 4.08 / 3.53,3.39,0/9
F29V/G50I/S57I,6.10 / 4.90 / n.d.,5.50,7/9 (4.94)
K65P/Y108K,n.d. / 3.88 / n.d.,3.88,1/9 (3.87)
S55Y/Y60V/K65Y,4.42 / 5.12 / n.d.,4.77,4/9 (4.97)
G26P/T28K/D107Y,n.d. / n.d. / 5.47,5.47,5/9 (4.80)
G26F/F27Y/W53Q,2.81 / 2.37 / n.d.,2.59,1/9 (3.67)
Y32E/M34A/K65T,n.d. / n.d. / n.d.,n.d.,0/9
M34P/S52F/Y108V,n.d. / n.d. / n.d.,n.d.,1/9 (4.47)
D30N/G104L/F106C,n.d. / n.d. / n.d.,n.d.,0/9
G56F/V99N/F106D,n.d. / n.d. / n.d.,n.d.,0/9
Y32D/A61Q/G104N,n.d. / n.d. / n.d.,n.d.,2/9 (4.06)
D31V/S63N/V99W,n.d. / n.d. / n.d.,n.d.,4/9 (5.19)
V99W/F106E,1.35 / 1.29 / 0.95,1.20,4/9 (5.38)
D31Q/N54A/Y108A,1.78 / 1.84 / 1.13,1.58,5/9 (4.98)
F27G/Y32W/H35R,3.96 / n.d. / n.d.,3.96,2/9 (3.61)
T28R/A61T/S63M,n.d. / n.d. / n.d.,n.d.,2/9 (2.95)
K65G/Y105V,2.11 / 1.87 / 1.35,1.78,2/9 (4.78)
N54C,n.d. / 3.78 / 3.95,3.86,1/9 (3.82)
D30Y/Y32P/S55T,n.d. / n.d. / n.d.,n.d.,3/9 (4.49)
N54F/R101G/D107C,n.d. / n.d. / n.d.,n.d.,0/9
G59I,4.29 / 4.63 / n.d.,4.46,4/9 (3.97)
A33Y/S57D/G102E,3.81 / 5.88 / n.d.,4.85,1/9 (4.45)
S55H/I58T/K65V,1.36 / 1.42 / 0.96,1.24,0/9
G26F/W53I/A61H,n.d. / n.d. / n.d.,n.d.,0/9
M34D/S55I/Y108L,4.50 / n.d. / 3.44,3.97,0/9
M34N/I58L/R101T,5.49 / 4.37 / n.d.,4.93,4/9 (4.68)
D30L,3.09 / 3.92 / 3.72,3.58,1/9 (4.10)
G26Y/Y32M/K65G,n.d. / n.d. / n.d.,n.d.,0/9
T28Q/V99I/Y108I,0.61 / 0.56 / 0.14,0.44,3/9 (4.05)
D31S/N54P/Y105L,n.d. / n.d. / n.d.,n.d.,0/9
A33W/N54Y,n.d. / n.d. / n.d.,n.d.,1/9 (4.76)
D30W/K65L/D107T,3.79 / 5.07 / 5.35,4.74,7/9 (4.59)
W53D/G56Q/S63V,2.48 / 2.54 / 2.47,2.50,3/9 (4.87)
D31K/S52D/V99M,n.d. / 4.29 / 4.59,4.44,3/9 (4.33)
D30R/G59F/S63K,n.d. / n.d. / n.d.,n.d.,1/9 (4.25)
T28K/I51K/N54I,n.d. / n.d. / n.d.,n.d.,0/9
H35A/V64F/F106W,n.d. / n.d. / n.d.,n.d.,3/9 (4.39)

Again, the first 6 entries without any signal:

{"changes": "D62M/S63F/V64I", "log10 Kd, replicates": "n.d. / n.d. / n.d.", "log10 Kd (nM), mean": "n.d.", "signal with controls": "0/9"}
{"changes": "Y32E/M34A/K65T", "log10 Kd, replicates": "n.d. / n.d. / n.d.", "log10 Kd (nM), mean": "n.d.", "signal with controls": "0/9"}
{"changes": "M34P/S52F/Y108V", "log10 Kd, replicates": "n.d. / n.d. / n.d.", "log10 Kd (nM), mean": "n.d.", "signal with controls": "1/9 (4.47)"}
{"changes": "D30N/G104L/F106C", "log10 Kd, replicates": "n.d. / n.d. / n.d.", "log10 Kd (nM), mean": "n.d.", "signal with controls": "0/9"}
{"changes": "G56F/V99N/F106D", "log10 Kd, replicates": "n.d. / n.d. / n.d.", "log10 Kd (nM), mean": "n.d.", "signal with controls": "0/9"}
{"changes": "Y32D/A61Q/G104N", "log10 Kd, replicates": "n.d. / n.d. / n.d.", "log10 Kd (nM), mean": "n.d.", "signal with controls": "2/9 (4.06)"}